We go through 1 compound from PMC8032343, “Discovery of the natural product 3',4',7,8-tetrahydroxyflavone as a novel and potent selective BRD4 bromodomain 2 inhibitor” (Journal of Enzyme Inhibition and Medicinal Chemistry, 2021).

For the experiment, the target named is Bromodomain-containing protein 4 (BRD4), BD2 (Homo sapiens, UniProt O60885). The experiment is described as follows: X-ray co-crystal structure ([…] Å); AlphaScreen displacement of histone H4 peptide. In kind it is binding. On the technique in general: Bead proximity is the source of the signal in Alpha formats.

For orientation: IC50 means the point on the concentration scale where inhibition reaches its midpoint. A high value points to lower potency. The compound `O=c1cc(-c2ccc(O)c(O)c2)oc2c(O)c(O)ccc12` [compound 3478, 3′,4′,7,8-tetrahydroxyflavone] gave an IC50 of 0.204 µM.
